Experimental data: publication PMC3463759 (Clinical cancer research : an official journal of the …, 2012)
Like-named read-outs stand apart in the source and are kept apart here.

[1] = all patients (N=20), all cycles
[2] = dasatinib 100 mg qd + paclitaxel + carboplatin, N=6, all cycles, patients (%)
[3] = dasatinib 120 mg qd + paclitaxel + carboplatin, N=3, all cycles, patients (%)

Compound: Cc1nc(Nc2ncc(C(=O)Nc3c(C)cccc3Cl)s2)cc(N2CCN(CCO)CC2)n1 [dasatinib, N-(2-chloro-6-methyl-phenyl)-2-(6-(4-(2-hydroxyethyl)-piperazin-1-yl)-2-methylpyrimidin-4-ylamino)thiazole-5-carboxamide]
- anemia grade 3–4 [1]: 30%
- fatigue grade 2–3 [1]: 10%
- Anemia, Grade 1 [2]: 1 (17)
- Anemia, Grade 2 [2]: 4 (67)
- Anemia, Grade 3 [2]: 1 (17)
- Dermatogic: Flushing, Grade 1 [2]: 1 (17)
- Fatigue, Grade 1 [2]: 2 (33)
- Fatigue, Grade 2 [2]: 1 (17)
- Gastrointestinal: Anorexia, Grade 2 [2]: 1 (17)
- Gastrointestinal: Constipation, Grade 2 [2]: 2 (33)
- Gastrointestinal: Diarrhea, Grade 1 [2]: 4 (67)
- Gastrointestinal: Diarrhea, Grade 2 [2]: 2 (33)
- Gastrointestinal: Dysgeusia, Grade 1 [2]: 1 (17)
- Gastrointestinal: Nausea, Grade 1 [2]: 2 (33)
- Gastrointestinal: Nausea, Grade 2 [2]: 2 (33)
- Gastrointestinal: Vomiting, Grade 1 [2]: 2 (33)
- Gastrointestinal: Vomiting, Grade 2 [2]: 1 (17)
- Neurologic: Anxiety, Grade 2 [2]: 1 (17)
- Neurologic: Sensory neuropathy, Grade 1 [2]: 3 (50)
- Neurologic: Sensory neuropathy, Grade 2 [2]: 1 (17)
- Neutropenia, Grade 3 [2]: 2 (33)
- Neutropenia, Grade 4 [2]: 4 (67)
- Pain: Head, Grade 1 [2]: 1 (17)
- Pain: Other, Grade 1 [2]: 1 (17)
- Pain: Other, Grade 3 [2]: 1 (17)
- Pulmonary: Cough, Grade 1 [2]: 1 (17)
- Pulmonary: Dyspnea, Grade 3 [2]: 1 (17)
- Anemia, Grade 2 [3]: 2 (67)
- Anemia, Grade 3 [3]: 1 (33)
- Dermatogic: Flushing, Grade 1 [3]: 1 (33)
- Fatigue, Grade 1 [3]: 3 (100)
- Gastrointestinal: Constipation, Grade 1 [3]: 1 (33)
- Gastrointestinal: Diarrhea, Grade 1 [3]: 3 (100)
- Gastrointestinal: Nausea, Grade 1 [3]: 3 (100)
- Gastrointestinal: Vomiting, Grade 1 [3]: 2 (67)
- Neurologic: Sensory neuropathy, Grade 1 [3]: 2 (67)
- Neutropenia, Grade 3 [3]: 1 (33)
- Neutropenia, Grade 4 [3]: 2 (67)
- Pulmonary: Cough, Grade 1 [3]: 1 (33)
- Pulmonary: Dyspnea, Grade 1 [3]: 2 (67)
- Pulmonary: Dyspnea, Grade 2 [3]: 1 (33)
